Experimental data published in PMC8769072, “Proteome‐scale mapping of binding sites in the unstructured regions of the human proteome” (Molecular Systems Biology, 2022).

Columns and labels:
[1] = target: T1, MDM2 SWIB (Homo sapiens, UniProt Q00987); assay: FP competition, MDM2 SWIB; type: binding; details: Fig 3C; FP competition with FITC-p53 probe; triplicates
T1 construct: Q00987; MDM2; SWIB; 17; 125; pETM33; Genescript; His-GST (cleaved yes); made in house; host or cells: bacteria (E. coli BL21(DE3) gold is named only for the phage-selection preparations)

[2] = target: T1, MDM2 SWIB; assay: FP saturation (direct binding of FITC probe), MDM2 SWIB; details: Fig 3C; direct binding of FITC-labeled probe
[3] = system: immobilized GST-tagged bait protein domains; assay: ProP-PD phage selections (HD2 P8, sublibraries, HD2 P3, HD1 P8) with NGS and confidence level; set-up: species or system human; details: bait MDM2_p53-binding-domain (Q00987 17-125), HD2 library

`CC(C)C[C@H](NC(=O)[C@H](CC(=O)O)NC(=O)[C@H](CO)NC(=O)[C@H](Cc1ccccc1)NC(=O)[C@@H](NC(=O)[C@H](CCC(=O)O)NC(=O)[C@@H](N)CCC(N)=O)[C@@H](C)O)C(=O)N[C@@H](Cc1c[nH]c2ccccc12)C(=O)N[C@@H](CCCCN)C(=O)N[C@@H](CC(C)C)C(=O)N[C@@H](CC(C)C)C(=O)N1CCC[C@H]1C(=O)N[C@@H](CCC(=O)O)C(=O)N[C@@H](CC(N)=O)C(=O)N[C@@H](CC(N)=O)C(=O)N[C@H](C(=O)O)C(C)C` [P53] gave a Ki [1] of 361 nM.
`CC(C)C[C@H](NC(=O)[C@H](CC(C)C)NC(=O)[C@H](CCCCN)NC(=O)[C@H](Cc1c[nH]c2ccccc12)NC(=O)[C@H](CC(C)C)NC(=O)[C@H](CC(=O)O)NC(=O)[C@H](CO)NC(=O)[C@H](Cc1ccccc1)NC(=O)[C@@H](NC(=O)[C@H](CCC(=O)O)NC(=O)[C@H](CCC(N)=O)NC(=O)[C@H](CO)NC(=S)Nc1ccc2c(c1)C(=O)OC21c2ccc(O)cc2Oc2cc(O)ccc21)[C@@H](C)O)C(=O)O` [p53_FITC] gave a Kd [2] of 51 ± 15 nM.
With QETFSDLWKLLPENNV the motif_found ([3]; benchmark motif instance recovered in the ProP-PD selection (TRUE/FALSE)) was “TRUE”, the best_confidence ([3]; confidence level (1-4) of best matching peptide) was 4 and the best_specificity ([3]; specificity score of best matching peptide) was 1.
